Results taken from patent US20090036518A1, “PHARMACEUTICAL COMPOSITION CONTAINING FLAVONOIDS” (TAIPEI MEDICAL UNIVERSITY, priority 2005, published 2009).

Tested on: high affinity rolipram binding sites (HARBS) of the PDE4 (PDE4H)
Test: Assay II: replacement of [3H]-rolipram bound on particulate HARBS of whole brain
Design: species or system guinea pig
Conditions: ratio of HARBS EC50 to PDE4 IC50
Protocol: The binding experiments are carried on basis of the methods of Schneider et al and Zhao et al with a small modification. Under a protocol approved by the Animal Care and Use Committee of Taipei Medical University, five male guinea pigs (Hartley), weighing 500-600 g, are anesthetized. The whole brains taken therefrom are homogenized with in 10 volumes of cold medium (pH 6.5) containing 20 mM Bis-tris, 2 mM benzamidine, 2 mM EDTA, 50 mM sodium chloride, 0.1 mM phenylmethanesulfonyl fluoride (PMSF), and 1 mM dithiothreitol. At 4[…], the homogenate is centrifuged at 170 g for 15 min for removing blood vessels and connective tissues, and the supernatant thereof is then re-centrifuged at 40,000 g for 30 min for separating the particulates from the cytosol of cells.
The final concentration of [^3H]-rolipram is 2 nM. […] After incubation, the reaction is stopped by transferring the reaction vessel to a bath of crashed ice. Then the reaction mixture is filtered through a punched glass fiber filter (Whatman GF/B) placed in a mini funnel, which is adopted to a 1.5 ml of Eppendorff's tube for collecting the filtrate in the mini centrifuge at 1000 rpm (100 g) for 10 seconds. […] The Whatman GF/B filter is mixed with 2 ml of cocktail and counted by the β-scintillation counter (Backman, Fullerton, Calif., USA) for counting the radioactivity thereof.

O=c1c(-c2ccc(O)cc2)coc2cc(O)cc(O)c12 [Genistein]
PDE4H/PDE4L ratio (EC50/IC50): 5.05
